Test results from patent US7067553B2, “Thiourea compounds and the pharmaceutical compositions containing the same” (Pacific Corporation, priority 2000, dated 2006).

Sequences of proteins named here, by UniProt entry; tags and fusion partners are left off.
UniProt O35433, whole entry: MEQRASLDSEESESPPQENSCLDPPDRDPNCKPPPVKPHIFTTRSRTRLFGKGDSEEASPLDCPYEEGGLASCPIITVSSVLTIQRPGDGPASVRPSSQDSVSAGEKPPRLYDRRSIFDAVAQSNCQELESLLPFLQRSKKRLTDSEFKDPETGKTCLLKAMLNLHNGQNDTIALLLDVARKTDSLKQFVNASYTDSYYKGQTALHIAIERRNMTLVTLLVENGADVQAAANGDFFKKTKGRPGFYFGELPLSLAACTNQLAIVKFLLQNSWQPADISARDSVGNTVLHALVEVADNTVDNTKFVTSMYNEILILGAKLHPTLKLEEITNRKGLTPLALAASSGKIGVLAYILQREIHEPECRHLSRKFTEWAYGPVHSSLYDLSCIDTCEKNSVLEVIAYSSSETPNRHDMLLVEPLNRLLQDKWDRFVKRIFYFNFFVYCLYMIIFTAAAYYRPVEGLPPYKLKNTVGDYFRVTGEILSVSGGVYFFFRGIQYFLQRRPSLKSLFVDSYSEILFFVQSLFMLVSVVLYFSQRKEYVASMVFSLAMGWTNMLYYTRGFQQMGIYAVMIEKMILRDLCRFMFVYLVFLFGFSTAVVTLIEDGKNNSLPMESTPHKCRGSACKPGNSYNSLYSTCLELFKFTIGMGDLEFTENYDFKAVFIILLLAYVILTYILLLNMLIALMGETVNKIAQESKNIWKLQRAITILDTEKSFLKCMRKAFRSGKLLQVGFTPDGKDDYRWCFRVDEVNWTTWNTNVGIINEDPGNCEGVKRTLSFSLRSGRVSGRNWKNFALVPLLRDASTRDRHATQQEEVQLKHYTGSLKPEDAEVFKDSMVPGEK

Legend:
vanilloid receptor = vanilloid receptor (Rattus norvegicus, UniProt O35433); assay: 45Ca influx test (calcium uptake) in cultured DRG neurons, capsaicin-stimulated; assay type: cell-based; conditions: read-out: Calcium Uptake Test(IC50); neonatal SD rat DRG neurons; capsaicin 0.5 μM; 45Ca 10 μCi/ml; 10 min at room temperature; NR: no response
[1] = target: cation channel connected to vanilloid receptor (Rattus norvegicus, UniProt O35433); assay: Channel activity assay (patchclamp test); set-up: key to the marks not given beside the values; conditions: potency relative to capsazepine
Male ICR mice [2] = assay: Analgesic activity test: mouse writhing test by inducing with phenyl-p-quinone; conditions: dose 1 mg/kg intraperitoneally 30 min before phenyl-p-quinone; writhes vs control
Male ICR mice [3] = assay: Antiinflammatory activity test: TPA-induced mouse ear edema test; conditions: dose 1 mg/ear topical; TPA 2.5 μg; ear weight 24 h after TPA

For Cc1ccc(CC(CNC(=S)NCc2ccc(NS(=O)(=O)C(F)(F)F)cc2)COC(=O)C(C)(C)C)cc1C (stereo not drawn), the IC50 (vanilloid receptor) was 11 µM.
CCS(=O)(=O)Nc1ccc(CNC(=S)NCC(COC(=O)C(C)(C)C)Cc2ccc(C)c(C)c2)cc1 (stereo not drawn) gave an IC50 (vanilloid receptor) of 2.5 µM.
With Cc1ccc(CC(CNC(=S)NCc2ccc(NS(=O)(=O)c3ccccc3)cc2)COC(=O)C(C)(C)C)cc1C (stereo not drawn) the IC50 (vanilloid receptor) was over 50 µM.
CCCS(=O)(=O)Nc1ccc(CNC(=S)NCC(COC(=O)C(C)(C)C)Cc2ccc(C)c(C)c2)cc1 (stereo not drawn) was tested, and the IC50 (vanilloid receptor) was 4.3 µM.
Cc1ccc(CC(CNC(=S)NCc2ccc(NS(=O)(=O)C(C)C)cc2)COC(=O)C(C)(C)C)cc1C (stereo not drawn) showed an IC50 (vanilloid receptor) of 32 µM.
For Cc1ccc(CC(CNC(=S)NCc2ccc(NS(C)(=O)=O)cc2)COC(=O)C(C)(C)C)cc1C (stereo not drawn), the IC50 (vanilloid receptor) was 0.45 µM, the “Patchclamp Test (antagonistic activities)” value [1] was “++” and the “Analgesic effect (% Inhibition)” value (Male ICR mice [2]) was 50%. For the same molecule, the “Anti-inflammatory effect (% Inhibition)” value (Male ICR mice [3]) was 34%.
